Experimental findings from publication PMC6992764 (Nature Communications, 2020) are described below.

By UniProt entry, the sequences of proteins in these tests, tags left out. Where a name states a change or a piece, a line headed by the entry shows the natural chain unless it says otherwise.
UniProt Q00987: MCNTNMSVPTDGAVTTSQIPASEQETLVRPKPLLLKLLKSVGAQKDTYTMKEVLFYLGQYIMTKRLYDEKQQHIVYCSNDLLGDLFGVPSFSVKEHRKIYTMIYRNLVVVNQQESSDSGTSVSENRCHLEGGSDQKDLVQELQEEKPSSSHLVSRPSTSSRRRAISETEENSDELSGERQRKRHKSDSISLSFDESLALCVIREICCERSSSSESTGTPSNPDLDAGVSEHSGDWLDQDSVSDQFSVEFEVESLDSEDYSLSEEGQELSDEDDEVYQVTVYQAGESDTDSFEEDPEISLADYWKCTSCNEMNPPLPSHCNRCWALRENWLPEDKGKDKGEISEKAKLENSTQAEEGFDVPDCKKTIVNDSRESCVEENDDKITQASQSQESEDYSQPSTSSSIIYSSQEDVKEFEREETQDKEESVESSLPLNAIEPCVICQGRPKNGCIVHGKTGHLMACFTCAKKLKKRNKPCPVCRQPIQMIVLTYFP

For this test, the target named is p53-MDM2 interaction (Homo sapiens, UniProt Q00987). The test can be described thus: HTRF p53-MDM2 interaction counter assay. It counts as binding.

For Nutlin, the “effect on p53-MDM2 interaction” value is on record as “inhibited”.
